# Ab-14 heavy chain CDR variants: yeast mating affinities

Source: Engelhart et al. 2022 (doi:10.1038/s41597-022-01779-4), MIT Lincoln Laboratory and A-Alpha Bio; data file from the FLAb repository.

Target: peptide PDVDLGDISGINAS, taken from heptad repeat 2 (HR2) of SARS-CoV-2 spike.

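Phage display of a naive human antibody library on the peptide gave the parent. Variants in AAYL49 differ from the parent at up to three CDR positions; double and triple changes were sampled at random. AlphaSeq pools MATa yeast showing the antibodies with MATalpha yeast showing the peptide. Mating (16 h, 30 °C) was followed by selection of diploids and sequencing of their barcodes. Scores were corrected for input abundance and mapped to Kd with protein pairs of known affinity run in the same pool. Mating was done three times.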

Parent scFv Ab-14: VH joined to VL by the linker GGGGSGGGGSGGGGS. Changes lie in the heavy chain CDRs alone.
VH: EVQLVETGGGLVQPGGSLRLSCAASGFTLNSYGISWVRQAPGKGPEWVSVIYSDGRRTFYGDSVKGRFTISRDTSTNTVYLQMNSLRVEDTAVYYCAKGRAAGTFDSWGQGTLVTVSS
VL: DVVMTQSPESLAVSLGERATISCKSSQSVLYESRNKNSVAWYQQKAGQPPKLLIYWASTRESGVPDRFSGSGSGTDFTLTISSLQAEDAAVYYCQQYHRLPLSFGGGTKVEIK

Positions count from residue 1 of the parent VH; S35P puts P in place of S.
Values are log10 of the apparent Kd in nM; lower means stronger binding.
Replicates are averaged; those with no signal do not enter the mean.
"no signal" means that the variant was in the library but no mating with the target was seen in any replicate; the authors take this as a sign of poor binding, and no number exists.
Background: pairings of library AAYL49 with three empty control strains gave a value in 15% of cases (median 4.06, 5th percentile 2.83). Values in that range, when seen in few replicates, are hard to tell from nonspecific mating.
In this assay the parent's reference entry averaged 0.65; its copy inside this library read 4.11 (one replicate of three).

changes | log10 Kd (nM), mean | replicates with signal
S35P+A101L+G103E | 4.90 | 2/3
T28F+D54I+G103H | no signal | 0/3
F27Y+L29R+I51K | no signal | 0/3
N30K+I51L+S107V | 3.76 | 2/3
G26D+Y60A+F105A | 3.11 | 1/3
L29H+F59G+D106W | 4.12 | 1/3
G33T+S53Y+D106P | no signal | 0/3
F27N+L29R | no signal | 0/3
T28S+V64W | 3.10 | 3/3
I51F+Y60T | 3.95 | 2/3
I51N+Y52V+R57G | no signal | 0/3
G26C+S35E+T104G | 2.83 | 1/3
S35Q+V50A+I51R | 3.92 | 1/3
N30M+I51F+D106L | no signal | 0/3
T58C+S63K+D106Q | 4.29 | 1/3
D54Q+R100P | no signal | 0/3
N30T+D62M+T104Q | no signal | 0/3
R57N+G61I+D106N | 3.03 | 3/3
I34S+V50H+F105K | 5.23 | 2/3
G26C+G61E | 2.40 | 3/3
T28D+G33I+Y52M | 4.84 | 1/3
F27N+Y32F+G103M | no signal | 0/3

Further variants, results first:

log10 Kd (nM), mean | replicates with signal | changes
2.59 | 1/3 | I51E+G99F+F105I
3.48 | 1/3 | T28K+Y52W+G55Q
no signal | 0/3 | F27I+D54M+T104D
-0.14 | 3/3 | T28D+T104W+D106N
4.32 | 1/3 | F59I+S63G+V64K
no signal | 0/3 | L29R+N30R
5.84 | 2/3 | Y60W+R100I+G103V
2.22 | 3/3 | L29P+R56M+K65D
no signal | 0/3 | S31M+Y32H+G103E
4.13 | 2/3 | Y52T+S63N+T104Q
2.34 | 1/3 | G33N+T58G+V64M
no signal | 0/3 | S35R+Y52K+T58M
4.43 | 2/3 | V50W+Y52Q+D106Y
no signal | 0/3 | F27M+S35V+R57L
5.41 | 3/3 | L29G+Y32C+D106R
3.86 | 1/3 | S53C+D54E
no signal | 0/3 | Y32V+G55P+T58D
no signal | 0/3 | Y52M+D54R+G61S
0.92 | 3/3 | F27G+R56L+G61I
no signal | 0/3 | Y32G+R56N
no signal | 0/3 | T28P+S35P+R56L
no signal | 0/3 | K65M+R100C+S107G
no signal | 0/3 | N30W+Y52M+T104G